According to patent publication US10040838B2, “CRHR2 peptide agonists and uses thereof” (JANSSEN PHARMACEUTICA NV, priority 2008, dated 2018):

Legend:
human CRHR2 [1] = target: T1, human CRHR2 (Homo sapiens, UniProt Q13324); assay: cAMP assay in h-CRHR2 transfected SK-N-MC cells; assay type: cell-based; details: for Experimental nH / Experimental αmax: CRHR2, Table 11; for Experimental αmax: maximal asymptote
T1 construct: expressed in transfected cells
T1 sequence (Q13324 1-411): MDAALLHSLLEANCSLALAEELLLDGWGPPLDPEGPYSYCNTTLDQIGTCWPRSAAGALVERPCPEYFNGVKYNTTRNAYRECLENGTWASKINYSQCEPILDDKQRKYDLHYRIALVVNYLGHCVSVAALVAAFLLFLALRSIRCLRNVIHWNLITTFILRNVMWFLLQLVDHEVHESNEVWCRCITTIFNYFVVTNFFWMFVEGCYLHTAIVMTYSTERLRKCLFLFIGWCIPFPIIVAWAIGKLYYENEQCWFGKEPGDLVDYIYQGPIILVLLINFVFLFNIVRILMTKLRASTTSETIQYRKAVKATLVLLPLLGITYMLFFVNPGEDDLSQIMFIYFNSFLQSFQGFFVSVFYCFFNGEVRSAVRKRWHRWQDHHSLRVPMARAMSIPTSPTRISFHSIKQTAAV
Procedure: (§1) The concentration required for 50% maximum effect (A50) was 0.4 nM.
(§2) Human CRHR1 (accession number X72304) or CRHR2 (accession number U34587) were cloned into pcDNA3.1/Zeo expression vector and stably transfected into SK-N-MC cells by electroporation. Cells were maintained in MEM w/Earl's Salt with 10% FBS, 50 I.U. penicillin, 50 μg/ml streptomycin, 2 mM L-glutamine, 1 mM sodium pyruvate and 0.1 mM nonessential amino acids, 600 μg/ml G418. Cells were grown at 37° C. in 5% CO2.
Cells were plated in 96-well tissue culture dishes (Biocoat from BD Biosciences) overnight at 50,000 cell/well. Cells were washed with PBS then resuspended in DMEM F-12 without phenol red, containing 10 μM isobutylmethylxanthine (IBMX). Cells were incubated with the peptides at concentrations ranging from 1 pM to 10 μM for 60 min at 37° Celsius. […] Forskolin (10 μM), a direct stimulant of adenylate cyclase, was used as positive control. The assays were stopped by the addition of 0.5 M HCl and mixing by orbital rotation for 2 h at 4° Celsius.
To assess the activity of the inventive peptide at the CRHR2, an intracellular cAMP measurement test using a Flash plate radioactive assay (Catalog No. Cus56088; Perkin Elmer, MA, U.S.A.) was employed.
Transfected SK-N-MC cells were plated in 96-well Biocoat tissue culture dishes (BD Biosciences, San Jose, Calif., U.S.A) overnight at 50,000 cell/well. Cells were first washed with PBS and then suspended with DMEM/F-12 without phenol red, containing […]. Suspended cells were transferred into a 96-well flash plate coated with scintillant fluid. Cells were incubated with peptides ranging from […], for 60 min, at 37° Celsius. Forskolin at 10 μM was used as positive control. After ligand stimulation, cells were lysed by the addition of 0.5M HCl and mixed by orbital rotation for 2 h at 4° Celsius in order to release intracellular cAMP into the media.
Media containing released intracellular cAMP was transferred to a 96-well flash plate coated with scintillant fluid containing an anti-cAMP antibody. In this assay, intracellular cAMP competes with ^125I-labeled cAMP binding to the antibody. […] [^125I]-cAMP was measured on a TopCount scintillation counter (Perkin Elmer, MA, U.S.A).
(§3) Individual agonist concentration-response curve data were fitted to the Hill equation, see formula below, using GraphPad Prism (Graphpad Software, La Jolla, Calif., U.S.A.), to provide estimates of agonist concentration needed to generate one-half maximal response (A50), and the maximal asymptote (α) and Hill slope (nH) parameters. In this equation, [A] is the agonist concentration and E is the measured effect:
For display purposes the mean fitted parameter estimates were used to generate a single E/[A] curve shown superimposed on the mean experimental data. Potency estimates for agonists, pA50, are expressed as the negative logarithm of the midpoint of each curve and listed with their standard error of measurement (SEM). Logarithm base 10 of the agonist dose ratio (Log DR) values were calculated by subtraction of the test compound pA50 value from the corresponding h-SCP (SEQ ID NO:1) control pA50 value within the same assay batch. […]
Human and rat peptides (see Table 10) were used on the stimulation of h-CRHR1 or h-CRHR2 transfected SK-N-MC cells in the cAMP flash plate assay. […] Curves were calculated using non-linear regression sigmoidal concentration-response analysis calculation in GraphPad Prism. […]

CRHR1 [2] = target: T2, CRHR1 (Homo sapiens, UniProt P34998); assay: cAMP assay in h-CRHR1 transfected SK-N-MC cells; assay type: cell-based; set-up: expressed in transfected cells; details: Table 11, Hill slope
T2 sequence (P34998 24-415): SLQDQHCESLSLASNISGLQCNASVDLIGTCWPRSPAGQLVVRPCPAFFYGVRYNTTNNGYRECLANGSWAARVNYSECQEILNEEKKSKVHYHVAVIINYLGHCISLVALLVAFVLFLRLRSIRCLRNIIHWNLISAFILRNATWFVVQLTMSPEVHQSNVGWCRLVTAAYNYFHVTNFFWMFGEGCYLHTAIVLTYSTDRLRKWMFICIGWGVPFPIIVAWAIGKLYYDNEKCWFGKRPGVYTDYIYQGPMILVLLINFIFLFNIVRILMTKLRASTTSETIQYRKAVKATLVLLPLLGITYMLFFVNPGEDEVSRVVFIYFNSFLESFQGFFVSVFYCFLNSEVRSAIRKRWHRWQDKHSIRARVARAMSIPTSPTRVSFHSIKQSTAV
Procedure: as §1, §2
Cells were plated in 96-well tissue culture dishes (Biocoat from BD Biosciences) overnight at 50,000 cell/well. Cells were washed with PBS then resuspended in DMEM F-12 without phenol red, containing 10 μM isobutylmethylxanthine (IBMX). […]
Media containing released intracellular cAMP was transferred to a 96-well flash plate coated with scintillant fluid containing an anti-cAMP antibody. […] [^125I]-cAMP was measured on a TopCount scintillation counter (Perkin Elmer, MA, U.S.A).
as §3, with “effect: […]” for “effect:”

human CRHR2 [3] = target: T1, human CRHR2; assay: Radioligand binding, membranes of SK-N-MC cells transfected with human CRHR2, [125I]-anti-sauvagine-30; details: for CRHR2 nH: Table 15, slope of competition curve
Procedure: The binding profile of h-SCP (SEQ ID NO:1) at CRHR2 was determined in radioligand binding studies in a membrane preparation of SK-N-MC cells stably transfected with human CRHR2 using [^125I]-anti-sauvagine-30 as the radiolabel. […] The solution was then homogenized with a Polytron tissue grinder at a setting of 10 and 7×3 s (Brinkmann Instruments, Westbury, N.Y.). The homogenate was centrifuged at 4° Celsius at 800×g for 5 min with the pellet being discarded. The supernatant was re-centrifuged at 26,892×g for 25 min at 4° Celsius with the final pellet being re-suspended in assay buffer. All binding assays were conducted in 96-well Multiscreen GF/B filter plates (Millipore, Billericay, Mass., U.S.A.) that were pre-soaked in assay buffer with 0.3% PEI for 1 hour. […] The bound radioactivity was separated by filtration using a Multiscreen Resist manifold (Millipore Corp., Billerica, Mass., U.S.A). The filters were washed three times with ice-cold PBS at pH 7.5 and radioactivity retained on the filters was quantified by its liquid scintillation measured by a TopCount counter (Packard BioScience, Boston, Mass., U.S.A). All experiments were performed in triplicate. Data from individual competition curves were expressed as the percentage of specific [^125I]-anti-sauvagine-30 or)[^125I]-([…])-sauvagine binding (B) within each experiment.

[4] = system: isolated rat aortic rings; assay: Vascular smooth muscle relaxation, isolated rat aortic rings pre-contracted with phenylephrine
Description: The ability of h-SCP (SEQ ID NO:1) to relax vascular smooth muscle was examined in isolated, rat aortic rings pre-contracted with phenylephrine (PE) (see FIG. 6). […] The responses caused by h-SCP (SEQ ID NO:1) were inhibited by anti-sauvagine-30 (SEQ ID NO:118).

CRHR1 [5] = target: T2, CRHR1; assay: Radioligand binding CRHR1 assay, [125I]-(Tyr0)-sauvagine; set-up: expressed in transfected cells; host or cells: cell membranes; details: Table 15; slope of competition curve
Procedure: The solution was then homogenized with a Polytron tissue grinder at a setting of 10 and 7×3 s (Brinkmann Instruments, Westbury, N.Y.). The homogenate was centrifuged at 4° Celsius at 800×g for 5 min with the pellet being discarded. The supernatant was re-centrifuged at 26,892×g for 25 min at 4° Celsius with the final pellet being re-suspended in assay buffer. All binding assays were conducted in 96-well Multiscreen GF/B filter plates (Millipore, Billericay, Mass., U.S.A.) that were pre-soaked in assay buffer with 0.3% PEI for 1 hour. […] The bound radioactivity was separated by filtration using a Multiscreen Resist manifold (Millipore Corp., Billerica, Mass., U.S.A). The filters were washed three times with ice-cold PBS at pH 7.5 and radioactivity retained on the filters was quantified by its liquid scintillation measured by a TopCount counter (Packard BioScience, Boston, Mass., U.S.A). All experiments were performed in triplicate. Data from individual competition curves were expressed as the percentage of specific [^125I]-anti-sauvagine-30 or)[^125I]-([…])-sauvagine binding (B) within each experiment.

CRHR1 nH (CRHR1 [5]) | Experimental nH (human CRHR2 [1]; Hill slope) | Experimental αmax (human CRHR2 [1]) | SMILES | Experimental nH (human CRHR2 [1]; Hill slope, listed as h-UCN2) | Experimental αmax (human CRHR2 [1]; listed as h-UCN2) | nH (human CRHR2 [1]; Table 14, Hill slope) | Experimental nH (CRHR1 [2]) | CRHR2 nH (human CRHR2 [3]) | competition curve / affinity states (human CRHR2 [3]; [125I]-anti-sauvagine-30 competition) | pA50 relaxation [4]
 |  |  | CC[C@H](C)[C@H](N)C(=O)N[C@H](C(=O)N[C@@H](CC(C)C)C(=O)N[C@@H](CO)C(=O)N[C@@H](CC(C)C)C(=O)N[C@@H](CC(=O)O)C(=O)N[C@H](C(=O)N1CCC[C@H]1C(=O)N[C@H](C(=O)NCC(=O)N[C@@H](CC(C)C)C(=O)N[C@@H](CC(C)C)C(=O)N[C@@H](CCC(N)=O)C(=O)N[C@H](C(=O)N[C@@H](CC(C)C)C(=O)N[C@@H](CC(C)C)C(=O)N[C@@H](CCC(=O)O)C(=O)N[C@@H](CCC(N)=O)C(=O)N[C@@H](C)C(=O)N[C@@H](CCCNC(=N)N)C(=O)N[C@@H](C)C(=O)N[C@@H](CCCNC(=N)N)C(=O)N[C@@H](C)C(=O)N[C@@H](C)C(=O)N[C@@H](CCCNC(=N)N)C(=O)N[C@@H](CCC(=O)O)C(=O)N[C@@H](CCC(N)=O)C(=O)N[C@@H](C)C(=O)N[C@H](C(=O)N[C@H](C(=O)N[C@@H](CC(N)=O)C(=O)N[C@@H](C)C(=O)N[C@@H](CCCNC(=N)N)C(=O)N[C@H](C(=O)N[C@@H](CC(C)C)C(=O)N[C@@H](C)C(=O)N[C@@H](CCCNC(=N)N)C(=O)N[C@H](C(N)=O)C(C)C)[C@@H](C)CC)[C@@H](C)O)[C@@H](C)O)[C@@H](C)CC)[C@@H](C)CC)C(C)C)C(C)C [SEQ ID NO: 115, IVLSLDVPIGLLQILLEQARAPAAREQATTNARILARV-NH2, reference compound] | 0.9 and 0.72 | 114.7 and 128.9 | 1.34 | 1.69 | 1.28 ± 0.15 | only high affinity binding | 7.01±0.13
0.79 ± 1.21 | 1.02 | 101.8 | CC[C@H](C)[C@H](NC(=O)[C@H](CCC(N)=O)NC(=O)[C@H](C)NC(=O)[C@H](CCSC)NC(=O)[C@H](CC(C)C)NC(=O)[C@H](Cc1c[nH]cn1)NC(=O)[C@H](C)NC(=O)[C@H](CC(N)=O)NC(=O)[C@H](C)NC(=O)[C@H](C)NC(=O)[C@H](C)NC(=O)[C@H](CCC(N)=O)NC(=O)[C@H](C)NC(=O)[C@H](CCCNC(=N)N)NC(=O)[C@H](CC(C)C)NC(=O)[C@H](CC(N)=O)NC(=O)[C@H](CCCCN)NC(=O)[C@H](C)NC(=O)[C@H](CCCCN)NC(=O)[C@H](C)NC(=O)[C@@H](NC(=O)[C@H](CC(N)=O)NC(=O)[C@H](Cc1ccccc1)NC(=O)[C@H](CC(C)C)NC(=O)[C@H](CC(C)C)NC(=O)[C@H](CC(N)=O)NC(=O)[C@H](CCSC)NC(=O)[C@@H](NC(=O)[C@H](CC(N)=O)NC(=O)[C@@H](NC(=O)[C@@H]1CCCN1C(=O)[C@@H](NC(=O)[C@H](CC(=O)O)NC(=O)[C@H](CC(C)C)NC(=O)[C@H](CO)NC(=O)[C@H](CC(C)C)NC(=O)[C@@H](NC(=O)[C@@H](N)Cc1ccccc1)[C@@H](C)O)C(C)C)[C@@H](C)O)[C@@H](C)CC)[C@@H](C)CC)C(N)=O [SEQ ID NO: 116, FTLSLDVPTNIMNLLFNIAKAKNLRAQAAANAHLMAQI-NH2, reference compound] |  |  |  |  | 0.68 ± 0.08 |  | 

Where “and” joins values, the source holds several entries; their conditions need not be identical. Identical values can stand only once.
